Assay: Bovine cartilage explant penetration assay
Conditions: rhodamine 10 μM, incubation up to 8 days

Substance: 1,2-dioleoyl-sn-glycero-3-phosphoethanolamine-N-(Lissamine rhodamine B sulfonyl) [free rhodamine]
- distribution of fluorescence signal in cartilage: very little fluorescence signal was observed in the deep zone of cartilage
